Test results from patent publication US5280119A, “Heterocyclic amine-boranes, and method of inhibiting DNA topoisomerase activity and/or combatting inflammation, hyperlipidemia, and/or neoplasia using amine-borane compounds” (dated 1994).
Converted amounts (≈) assume the structure as drawn.

Protein sequences, listed by entry. Tags and fused reporters are not part of them. Lines headed by an entry give the natural chain unless they say otherwise; changes in a name come on top.
UniProt P11388: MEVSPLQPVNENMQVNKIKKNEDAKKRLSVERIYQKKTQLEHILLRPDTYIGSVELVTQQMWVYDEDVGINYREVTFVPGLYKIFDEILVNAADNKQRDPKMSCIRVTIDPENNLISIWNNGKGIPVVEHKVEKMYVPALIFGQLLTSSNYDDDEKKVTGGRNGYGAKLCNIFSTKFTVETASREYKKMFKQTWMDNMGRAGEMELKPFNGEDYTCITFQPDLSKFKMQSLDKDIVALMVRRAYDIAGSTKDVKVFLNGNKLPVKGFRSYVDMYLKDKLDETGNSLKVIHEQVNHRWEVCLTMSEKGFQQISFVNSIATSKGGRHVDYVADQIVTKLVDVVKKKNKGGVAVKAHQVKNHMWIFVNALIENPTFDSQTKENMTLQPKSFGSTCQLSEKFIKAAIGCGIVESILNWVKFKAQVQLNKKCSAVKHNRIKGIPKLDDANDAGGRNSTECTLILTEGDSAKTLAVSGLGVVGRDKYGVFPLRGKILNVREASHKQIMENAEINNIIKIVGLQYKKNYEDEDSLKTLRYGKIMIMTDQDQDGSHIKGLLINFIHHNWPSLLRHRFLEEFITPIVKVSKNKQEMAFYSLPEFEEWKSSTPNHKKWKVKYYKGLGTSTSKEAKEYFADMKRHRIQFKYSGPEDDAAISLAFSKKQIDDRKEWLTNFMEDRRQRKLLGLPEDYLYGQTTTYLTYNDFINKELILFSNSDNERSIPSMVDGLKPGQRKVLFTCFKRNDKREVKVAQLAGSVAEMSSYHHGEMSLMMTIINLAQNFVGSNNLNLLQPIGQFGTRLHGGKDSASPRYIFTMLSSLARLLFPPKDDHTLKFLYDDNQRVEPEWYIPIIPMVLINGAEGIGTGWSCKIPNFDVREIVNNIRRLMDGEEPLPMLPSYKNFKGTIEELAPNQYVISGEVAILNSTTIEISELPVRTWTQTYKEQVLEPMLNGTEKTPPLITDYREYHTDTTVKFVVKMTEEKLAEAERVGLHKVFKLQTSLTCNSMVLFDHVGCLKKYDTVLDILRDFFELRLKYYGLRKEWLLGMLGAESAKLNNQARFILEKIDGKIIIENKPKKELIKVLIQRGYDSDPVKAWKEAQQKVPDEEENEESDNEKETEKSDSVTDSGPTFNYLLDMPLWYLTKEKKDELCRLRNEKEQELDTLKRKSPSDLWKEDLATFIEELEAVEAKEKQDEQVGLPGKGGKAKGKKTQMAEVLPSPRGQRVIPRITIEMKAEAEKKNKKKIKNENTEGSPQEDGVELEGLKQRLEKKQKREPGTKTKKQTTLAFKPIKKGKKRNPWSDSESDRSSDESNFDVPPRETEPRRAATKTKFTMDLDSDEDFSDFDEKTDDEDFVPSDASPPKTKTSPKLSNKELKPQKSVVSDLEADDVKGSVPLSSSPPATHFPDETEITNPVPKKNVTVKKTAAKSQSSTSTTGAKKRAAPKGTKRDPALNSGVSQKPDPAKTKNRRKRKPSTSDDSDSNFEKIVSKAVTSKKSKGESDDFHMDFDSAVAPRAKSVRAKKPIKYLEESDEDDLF

Legend:
[1] = test system: human Tmolt3 acute lymphoblastic T cell leukemia; assay: Cytotoxicity, Tmolt3; details: trypan blue exclusion
[2] = test system: HeLa-S^3 suspended cervical carcinoma; assay: Cytotoxicity, HeLa-S3; details: hela-s3 cells
glioma EH 118 MG = assay: Cytotoxicity, glioma EH 118 MG; details: eh 118 mg cells
osteosarcoma TE418 = assay: Cytotoxicity, osteosarcoma TE418; details: te418 cells
[3] = Hypolipidemic screen in normal mice; details: CF1 male mice, IP; for Serum Cholesterol Day 9 / Serum Cholesterol Day 16 / Serum Triglycerides Day 16: 8 Mg/kg/day, N = 6
[4] = test system: murine L1210 lymphoid leukemia; assay: Cytotoxicity, L1210 lymphoid leukemia; details: trypan blue exclusion
Lewis lung carcinoma = assay: In vivo Lewis lung carcinoma activity; details: 8 mg/kg/day I.P.
[5] = test system: lung bronchogenic MB-9812; assay: Cytotoxicity, lung bronchogenic MB-9812; details: for ED50 Cytotoxicity, Human Lung Bronchogenic: concentration which inhibits 50% of cell growth
[6] = test system: P388 lymphocytic leukemia; assay: Cytotoxicity, P388 lymphocytic leukemia; details: for ED50 Cytotoxicity, P388 Lymphocytic Leukemia: p388 cells
[7] = test system: KB epidermoid nasopharynx; assay: Cytotoxicity, KB epidermoid nasopharynx; details: kb cells
[8] = test system: Ehrlich ascites carcinoma; assay: in vivo Ehrlich ascites carcinoma screen; details: 20 mg/kg/day I.P., CF1 male mice
[9] = Anti-inflammatory activity, carrageenan paw; details: CF1 Mice, 20 mg/kg × 2 (table head; b1373: 8 mg/kg i.p. 3 hours and 30 minutes before carrageenan)
[10] = test system: colorectal adenocarcinoma SW480; assay: Cytotoxicity, colorectal adenocarcinoma SW480; details: sw480 cells
[11] = target: DNA topoisomerase II (HeLa) (Homo sapiens, UniProt P11388); assay: DNA topoisomerase II inhibition (unknotting of knotted DNA); details: one hour reaction, agarose gel

**Q.** For CC1CC[NH+]([BH2-]C(=O)O)CC1 (stereo not drawn), which “ED50 Cytotoxicity, Human lymphocyte Tmolt3” value [1] is on record?
**A.** 2.61 µg/mL (≈ 16.6 µM)

**Q.** And the “ED50 Cytotoxicity, Human HeLa-S^3” value [2]?
**A.** 1.71 µg/mL (≈ 10.9 µM)

**Q.** And the “ED50 Cytotoxicity, Human Glioma” value (glioma EH 118 MG)?
**A.** 2.53 µg/mL (≈ 16.1 µM)

**Q.** And the “ED50 Cytotoxicity, Human Osteo-Sarcoma” value (osteosarcoma TE418)?
**A.** 7.47 µg/mL (≈ 47.6 µM)

**Q.** And the “Serum Cholesterol Day 9” value [3]?
**A.** 106 ± 7% of Control

**Q.** What about the “Serum Cholesterol Day 16” value [3] of the same compound?
**A.** 85 ± 6% of Control

**Q.** What about the “Serum Triglycerides Day 16” value [3] of the same compound?
**A.** 53 ± 4% of Control

**Q.** And the “serum triglyceride levels lowered” value ([3]; doses of Table 6)?
**A.** 47%

**Q.** What about the “ED50 Cytotoxicity, L1210 Lymphoid Leukemia” value [4] of the same compound?
**A.** 2.85 µg/mL (≈ 18.2 µM)

**Q.** What about the “T/C%, in vivo Lewis lung carcinoma” value (Lewis lung carcinoma) of the same compound?
**A.** 179%

**Q.** What about the “ED50 Cytotoxicity, Human Lung Bronchogenic” value [5] of the same compound?
**A.** 3.51 µg/mL (≈ 22.4 µM)

**Q.** And the “activity against growth of lung bronchogenic tumor (in words)” value ([5]; text summary of Table 4)?
**A.** significant activity

**Q.** What about the “ED50 Cytotoxicity, P388 Lymphocytic Leukemia” value [6] of the same compound?
**A.** 3.89 µg/mL (≈ 24.8 µM)

**Q.** What about the “activity in the murine P388 lymphocytic screen (in words)” value ([6]; text summary of Table 4) of the same compound?
**A.** active

**Q.** And the “ED50 Cytotoxicity, Human KB” value [7]?
**A.** 6.19 µg/mL (≈ 39.4 µM)

**Q.** And the “inhibition of growth, in vivo Ehrlich ascites carcinoma” value [8]?
**A.** 78%

**Q.** And the “% of Control, anti-inflammatory (paw weight increase)” value [9]?
**A.** 80 % of Control

**Q.** What about the “ED50 Cytotoxicity, Human Colon SW480” value [10] of the same compound?
**A.** 6.50 µg/mL (≈ 41.4 µM)

**Q.** What about the “Inhibitory Concentration, Topoisomerase II” value [11] of the same compound?
**A.** 100 µM

**Q.** Which “ED50 Cytotoxicity, Human lymphocyte Tmolt3” value [1] does the source give for Cn1cc[n+]([BH2-]C(=O)O)c1 here?
**A.** 2.72 µg/mL (≈ 19.4 µM)

**Q.** And the “ED50 Cytotoxicity, Human HeLa-S^3” value [2]?
**A.** 1.97 µg/mL (≈ 14.1 µM)

**Q.** What about the “ED50 Cytotoxicity, Human Glioma” value (glioma EH 118 MG) of the same compound?
**A.** 3.04 µg/mL (≈ 21.7 µM)

**Q.** And the “ED50 Cytotoxicity, Human Osteo-Sarcoma” value (osteosarcoma TE418)?
**A.** 7.17 µg/mL (≈ 51.2 µM)

**Q.** And the “Serum Cholesterol Day 9” value [3]?
**A.** 75 ± 7% of Control

**Q.** What about the “Serum Cholesterol Day 16” value [3] of the same compound?
**A.** 66 ± 6% of Control

**Q.** What about the “Serum Triglycerides Day 16” value [3] of the same compound?
**A.** 63 ± 6% of Control

**Q.** And the “ED50 Cytotoxicity, L1210 Lymphoid Leukemia” value [4]?
**A.** 2.46 µg/mL (≈ 17.6 µM)

**Q.** And the “ED50 Cytotoxicity, Human Lung Bronchogenic” value [5]?
**A.** 2.78 µg/mL (≈ 19.9 µM)

**Q.** And the “ED50 Cytotoxicity, P388 Lymphocytic Leukemia” value [6]?
**A.** 9.66 µg/mL (≈ 69 µM)

**Q.** What about the “ED50 Cytotoxicity, Human KB” value [7] of the same compound?
**A.** 4.43 µg/mL (≈ 31.7 µM)

**Q.** And the “inhibition of growth, in vivo Ehrlich ascites carcinoma” value [8]?
**A.** 73%

**Q.** What about the “ED50 Cytotoxicity, Human Colon SW480” value [10] of the same compound?
**A.** 4.43 µg/mL (≈ 31.7 µM)

**Q.** And the “Inhibitory Concentration, Topoisomerase II” value [11]?
**A.** 100 µM

**Q.** What does the source list for O=C(O)[BH2-][NH+]1CCOCC1?
**A.** ED50 Cytotoxicity, Human lymphocyte Tmolt3 [1]: 1.96 µg/mL (≈ 13.5 µM); ED50 Cytotoxicity, Human HeLa-S^3 [2]: 2.14 µg/mL (≈ 14.8 µM); ED50 Cytotoxicity, Human Glioma (glioma EH 118 MG): 2.44 µg/mL (≈ 16.8 µM); ED50 Cytotoxicity, Human Osteo-Sarcoma (osteosarcoma TE418): 6.65 µg/mL (≈ 45.9 µM); Serum Cholesterol Day 9 [3]: 63 ± 6% of Control; Serum Cholesterol Day 16 [3]: 57 ± 5% of Control; Serum Triglycerides Day 16 [3]: 84 ± 7% of Control; serum cholesterol level lowered ([3]; doses of Table 6): 43%; ED50 Cytotoxicity, L1210 Lymphoid Leukemia [4]: 4.44 µg/mL (≈ 30.6 µM); ED50 Cytotoxicity, Human Lung Bronchogenic [5]: 6.30 µg/mL (≈ 43.5 µM); ED50 Cytotoxicity, P388 Lymphocytic Leukemia [6]: 12.30 µg/mL (≈ 84.8 µM); ED50 Cytotoxicity, Human KB [7]: 7.12 µg/mL (≈ 49.1 µM); % of Control, anti-inflammatory (paw weight increase) [9]: 66 % of Control; ED50 Cytotoxicity, Human Colon SW480 [10]: 7.02 µg/mL (≈ 48.4 µM); Inhibitory Concentration, Topoisomerase II [11]: 100 µM
